## Ab-14 heavy chain CDR variants: yeast mating affinities

The measurements come from Engelhart et al. 2022 (doi:10.1038/s41597-022-01779-4) through the FLAb antibody collection.

The target is the same throughout: PDVDLGDISGINAS, from the HR2 region of SARS-CoV-2 spike.

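The starting antibody came from a phage panning campaign against this peptide. Variants in AAYL49 differ from the parent at up to three CDR positions; double and triple changes were sampled at random. The scFvs were displayed on barcoded MATa yeast, the peptide on MATalpha yeast. The frequency of each diploid, read from paired DNA barcodes, reflects how well the two displayed proteins bind. The ratio of observed to expected reads was calibrated, replicate by replicate, on BCL2-family standards whose Kd was known from biolayer interferometry. Each pool was mated in three replicate cultures.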

Ab-14 is the parent antibody, in scFv form: VH, then a 15-residue (Gly4Ser)3 linker, then VL. The light chain is unchanged in all variants.
VH: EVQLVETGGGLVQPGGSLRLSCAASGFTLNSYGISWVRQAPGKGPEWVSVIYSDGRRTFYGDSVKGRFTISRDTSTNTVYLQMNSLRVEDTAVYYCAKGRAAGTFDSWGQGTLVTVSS
VL: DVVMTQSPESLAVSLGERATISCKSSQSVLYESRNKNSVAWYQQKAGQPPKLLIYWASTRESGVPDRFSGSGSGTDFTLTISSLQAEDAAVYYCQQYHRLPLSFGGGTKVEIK

Each variant is given by its three heavy chain CDRs, as the data file delimits them; those of the parent are GFTLNSYGIS, VIYSDGRRTFYGDSVK, GRAAGTFDS.
This list gathers variants with a substitution at T58 (VH, numbered from residue 1).
Scale: log10 of Kd in nM, estimated from mating counts; low values are strong binders.
"ND" marks a missing value. The strain was present, yet no cells mated with the target were sequenced in that replicate, which points to weak or no binding.

Variant GFTLNSLGIS | VIYSDGRRCFYGDSVK | GRAANTFDS showed ND, 4.79, ND. For GFTLNSYGIS | VIYSDGRRDFYGDTVK | GRAAGTFDS, the assay gave ND, ND, ND. Variant GFTLNSYGIS | VIYSDGRRHFYGDSVK | GRLAGTFPS gave ND, ND, 5.73. With GNTLNRYGIS | VIYSDGRRFFYGDSVK | GRAAGTFDS the result was ND, 3.69, ND. With GFTLNSYEIS | VIYSDGRRNFYGDSVK | GRAKGTFDS the result was 4.46, ND, ND. For GFTLNSYGIP | VIYSKGRRFFYGDSVK | GRAAGTFDS, the assay gave ND, ND, ND. With GFTLNSYGIS | VIYSMGRREFYGDSVK | WRAAGTFDS the result was ND, 3.69, 3.97. With GFTLNSYGIS | VIYSRGRRGFYGDKVK | GRAAGTFDS the result was ND, ND, 3.39.

For GFTLNSRGIS | VIYSDGRKRFYGDSVK | GRAAGTFDS, the assay gave 5.94, ND, 4.76. With GFTLNSKGIS | AIYSDGRRKFYGDSVK | GRAAGTFDS the result was ND, ND, ND. With GFTLNSHGIS | VIYSDGMRPFYGDSVK | GRAAGTFDS the result was 4.86, ND, ND. Variant GFLLNSYGIS | VIYSDGRRGFYGDSVK | GRVAGTFDS gave ND, 2.65, ND. Variant GFTLNSYGIS | VITSDGRRWFYGDSVK | GLAAGTFDS showed ND, ND, ND. Variant GFTLNSYGIC | VIYEDGRRIFYGDSVK | GRAAGTFDS showed ND, 3.40, 3.67. Variant GFTLNSYGIS | VIYSDGTRWFYGVSVK | GRAAGTFDS gave ND, 4.34, ND. For GFTLNSYGIS | AIYSDGRRLFYGDSNK | GRAAGTFDS, the assay gave 4.59, ND, ND.

For GFTLNMYGIS | VIYSDGRRKMYGDSVK | GRAAGTFDS, the assay gave 1.93, 1.87, 2.03. With GFTLNSYGIS | VIYSDGHRVFYGDSVK | GRAAGTFDS the result was 0.83, 0.96, 0.77. Variant GFTLNSYGIS | VIYSTGRRCFYGDSVK | GRAAGTFDS gave ND, ND, ND. For GNTLNSYNIS | VIYSDGRRAFYGDSVK | GRAAGTFDS, the assay gave 5.53, 2.54, ND. Variant CFTLNSYGIS | VTYSDGRRNFYGDSVK | GRAAGTFDS showed 5.24, 4.79, ND. For GFTYNSYGIS | VIYSDGRREFYGDNVK | GRAAGTFDS, the assay gave ND, ND, ND. With GFTLNSYGIS | VIYSDGRRVFYGDSVK | GRYAGTVDS the result was 1.84, 2.76, 1.13. Variant GFTLNSYGIS | VIYSDGRRAFYADSVI | GRAAGTFDS gave 0.21, 0.77, 1.43.

Variant GFTLNSYGIS | VIYSAGRRHFYGDSVK | GRAAGTFDS showed 5.40, ND, ND. Variant GFTLNSYGIS | VIYSDGRGQFYGDSVK | GRAAGTFPS gave 3.74, 3.75, ND. With GFTLNSYGIS | VIYGDRRRKFYGDSVK | GRAAGTFDS the result was ND, ND, ND. Variant GFTLNSYGIS | VIYSDGRRQFYGDSVT | GRAAGTFDR showed ND, ND, ND. Variant GFTLNSYGIK | VIYSDGRRLFYGDSVK | RRAAGTFDS gave ND, ND, ND. Variant GFTLNSYGIS | HIYSDGRRDFYGDGVK | GRAAGTFDS showed ND, ND, ND. With RDTLNSYGIS | VIYSDGRRNFYGDSVK | GRAAGTFDS the result was 2.27, 2.21, 2.06. Variant GFTLNSYGIS | VIYSDGRRDFYGDSVK | GDAAGTTDS gave ND, ND, 4.31.

For GFTLNSYGIS | VIYSDGRRGFYGDCVK | GRAMGTFDS, the assay gave 5.24, 4.21, 5.08. Variant GFTLNSYGVS | VIYSDGRRPFYGDSVF | GRAAGTFDS gave 4.34, ND, 3.30. Variant GFTLNSYGIS | VIYSDGRRKFYQDSVK | GRAAGTFDS showed 1.17, 1.24, 1.39. Variant GFTLNSYGIS | VIYSDGKRLFYGDSVD | GRAAGTFDS gave 3.33, 3.06, 3.51. Variant GFFLNSYGDS | VIYSDGRRRFYGDSVK | GRAAGTFDS showed 6.25, ND, ND. With GFTLNSYGIS | VIYSDGRNYFYGDSVK | GRHAGTFDS the result was ND, ND, ND. For GFTLNSYSIS | VIYSDGRRDFSGDSVK | GRAAGTFDS, the assay gave ND, 4.60, ND. For GFTLNSYGIS | VIYSDGRRWFFGDFVK | GRAAGTFDS, the assay gave 5.30, ND, ND.

For GFTLNSYGIH | VIYSDGRRHFNGDSVK | GRAAGTFDS, the assay gave ND, ND, ND. With GFTLNSYGIS | VIYSDGNRFFYGDSVK | GRAAGWFDS the result was ND, ND, ND. Variant GFTLNSYGIS | VIYSDGRRQFYGDSVK | GRAAGTFDS gave 1.04, 1.39, 1.39. Variant GFTLNSYGIS | VIISDGRRIFYGDSVK | GRAAGTFDS showed ND, 3.92, ND. Variant GFTLNSYGIN | VIYSDGRRLLYGDSVK | GRAAGTFDS showed ND, ND, ND. With GFTLNSWGIS | VIYSDGRRKFYGDSVK | GRAVGTFDS the result was ND, ND, ND. With GFTCNSYGIS | VIYSDGRRAFYGDSVK | GRAAGTFDS the result was ND, ND, 6.01. For GDTLNSYGIS | VIYSDGRRDFYGDSVK | GRAAGTFGS, the assay gave ND, ND, ND.

With GFTLNSYGIS | VIYSDGRRAYYGDSVK | RRAAGTFDS the result was ND, ND, ND. For GFTLNSYGIS | VIYSDGRRSNYGDSVK | GRAASTFDS, the assay gave 2.74, 2.67, 3.02.

For reference, 5 entries of the list once more:

{"CDR-H1": "GFTLNSYGIS", "CDR-H2": "VIYSTGRRCFYGDSVK", "CDR-H3": "GRAAGTFDS", "replicates, log10 nM": "ND, ND, ND"}
{"CDR-H1": "GFTLNSYGIS", "CDR-H2": "VIYSDGRRWFFGDFVK", "CDR-H3": "GRAAGTFDS", "replicates, log10 nM": "5.30, ND, ND"}
{"CDR-H1": "GFTLNSKGIS", "CDR-H2": "AIYSDGRRKFYGDSVK", "CDR-H3": "GRAAGTFDS", "replicates, log10 nM": "ND, ND, ND"}
{"CDR-H1": "GFTLNSYGIS", "CDR-H2": "AIYSDGRRLFYGDSNK", "CDR-H3": "GRAAGTFDS", "replicates, log10 nM": "4.59, ND, ND"}
{"CDR-H1": "GFTLNSYGIS", "CDR-H2": "VIYSDGRRQFYGDSVT", "CDR-H3": "GRAAGTFDR", "replicates, log10 nM": "ND, ND, ND"}

Background: pairings of library AAYL49 with three empty control strains gave a value in 15% of cases (median 4.06, 5th percentile 2.83). Values in that range, when seen in few replicates, are hard to tell from nonspecific mating.